The entries are a selection whose mix differs from that of the whole data set. Some of these compounds have results that are not shown, active ones among them. Inconclusive results are not listed. The source made the active and inactive calls. The call rests on the fitted dose curve; in most records, active means well fitted inhibition curve with a large enough effect; inconclusive means small, poorly fitted or top-dose-only effect; inactive means no such curve, though single readings can be large or run the other way.
Assay: Primary qHTS assay for Inhibitors of ovarian cancer metastasis using an organotypic tumor microenvironment (TME) model. Further: nearly all actives have a fitted effect of over 65% in size.
Conditions: SKOV3ip1-GFP adhesion/invasion on 3D omental model, fluorescence; activity change, negative = inhibition: at 45.8 µM (top of the series)
Excerpt: PI: Ernst Lengyel MD., Ph.D. Department of Obstetrics and Gynecology, Section of Gynecologic Oncology University of Chicago Medicine, Chicago, Illinois. The tumor microenvironment (TME) is a key determinant of metastatic efficiency. We performed a quantitative high-throughput screen (qHTS) of diverse medicinal chemistry tractable scaffolds (44,420 compounds) and pharmacologically active small molecules (386 compounds) using a layered organotypic, robust assay representing the ovarian cancer metastatic TME. This 3D model contains primary human mesothelial cells, fibroblasts, and extracellular matrix, to which fluorescently labeled ovarian cancer cells are added. Initially, 100 compounds inhibiting ovarian cancer adhesion/invasion to the 3D model in a dose-dependent manner were identified. Of those, eight compounds were confirmed active in five high-grade serous ovarian cancer cell lines and were further validated in secondary in vitro and in vivo biological assays. […] Specifically, NCGC00117362 and PP-121 inhibited ovarian cancer adhesion, invasion, and proliferation, whereas milciclib inhibited ovarian cancer invasion and proliferation. […] To evaluate the clinical potential of NCGC00117362, structure - activity relationship studies were performed. […] The three compounds identified have promise as therapeutics for prevention and treatment of ovarian cancer metastasis.
PROTOCOL TABLE (as described by Inglese J, Shamu CE and Guy RK. 2007) SEQUENCE No. (e.g., 1, 2, 3, etc.); […] (e.g., Cells, Incubation, Reagent, etc.); VALUE; DESCRIPTION. 1; Cells; 4 uL; primary human omental fibroblast, black, clear bottom, low base, 1536-well Aurora assay plate. 2; Incubation; 48 hr; 37C. 3; Cells; 3 uL; 1,200 SKOV3ip1-GFP cells. 4; Compounds; 23nL; acoustic dispenser. 5; Incubation; 2 hr; room temperature. 6; Incubation; 16 hr; 37C. 7; Wash; 5 uL; 1x PBS. 8; Fixing; 5 uL; 4% paraformaldehyde (PFA). 9; Incubation; 15 min; room temperature 10; Wash, 5 uL; 1x PBS. 11; Detection; Fluorescence, excitation filter 488 nm, emission filter 509 nm. NOTES (numbers refer to Sequence numbers above) 1. For the 1,536-well format, 40 primary human omental fibroblasts and 400 mesothelial cells were seeded with 0.02 µg fibronectin and 0.02 µg collagen type I in 4 µL of growth media (2.3 mm2; Supplementary Fig. S1A). 2. Assay plates were incubated for 48 hours at 37 C. 3. After incubation, 1,200 SKOV3ip1-GFP were seeded in 3 µL of serum-free media (growth media minus FBS) on top of primary human omental cells. 4. Compounds or controls were added to each well immediately after the addition of the cancer cells. Compounds were screened in four doses (0.36-46 µmol/L), and the plates contained the positive control (Tomatine) in eight doses (0.035-75 µmol/L) and DMSO (equal volume controls) 5 - 6. The plates were incubated at room temperature for 2 hours and then at 37 degrees C for 16 hours. 7 - 10. Following incubation, the media were aspirated and each well washed with PBS (5 µL) and then fixed with 4% paraformaldehyde (PFA; 5 µL). After 15 minutes, the PFA solution was aspirated, PBS (5 µL) was added. 11. The number of GFP-labeled cells analyzed using a fluorescent cytometer TTP LabTech Acumen eX3 using 488 nm excitation filter and 509 nm emission filter. Data was normalized to the DMSO treated for negative and Tomatine treated wells for positive control. REFERENCES: Inglese J, Shamu CE and Guy RK, Reporting data from high throughput screening of small molecule libraries, Nature Chemical Biology, 2007, 3(8): 438-441. doi.org/10.1038/nchembio0807-438. Yasgar A, Shinn P, Jadhav A, Auld DS, Michael S, Zheng W, Austin CP, Inglese J and Simeonov A, Compound Management for Quantitative High-Throughput Screening. J. Assoc. Lab. Auto., 2008, 13: 79-89. doi: 10.1016/j.jala.2007.12.004.

| SMILES | activity change, negative = inhibition |
| --- | --- |
| CCCCOc1ccccc1C(=O)NCC1(N(C)C)CCCCC1 | inactive: -8.88% |
| CN(C)C1(CNC(=O)c2ccccc2[N+](=O)[O-])CCCCC1 | inactive |
| CCOc1cccc(C(=O)NCC2(N(C)C)CCCCC2)c1 | inactive |
| CN(C)C1(CNC(=O)c2ccccc2F)CCCCC1 | inactive: 8.3% |
| CN(C)C1(CNC(=O)c2cccc(Cl)c2)CCCCC1 | inactive: 5.93% |
| CC(C)COc1ccc(C(=O)NCC2(N(C)C)CCCCC2)cc1 | inactive: 1.19% |
| COc1cccc(C(=O)NCC2(N3CCOCC3)CCCCC2)c1 | inactive |
| CC(C)Oc1ccc(C(=O)NCC2(N(C)C)CCCCC2)cc1 | inactive: 11.1% |
| COc1cc(C(=O)NCC2(N(C)C)CCCCC2)cc(OC)c1OC | inactive: -30.1% |
| Cc1cccc(C(=O)NCC2(N(C)C)CCCCC2)c1 | inactive: 3.32% |
| COc1ccc(C(=O)NCC2(N(C)C)CCCCC2)cc1Cl | inactive: -0.792% |
